# Experimental data reported in patent US9604926B2 (THE UNIVERSITY OF MISSISSIPPI, priority 2007, dated 2017).
# Sequences of proteins named here, by UniProt entry; tags and fusion partners are left off. A change or cut given only in a name is not applied to a line headed by its entry.
# UniProt Q5U3Y7: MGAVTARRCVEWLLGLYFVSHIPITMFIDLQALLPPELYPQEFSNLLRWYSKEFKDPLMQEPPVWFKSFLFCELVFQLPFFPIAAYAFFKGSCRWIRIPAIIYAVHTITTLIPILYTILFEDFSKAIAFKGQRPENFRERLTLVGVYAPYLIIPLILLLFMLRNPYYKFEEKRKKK
# Target: σ-2 receptor (Rattus norvegicus (Rat), UniProt Q5U3Y7)
# Assay: σ-2 receptor binding in rat brain homogenates ([3H]DTG plus (+)-pentazocine)
# Details: read-out: Ki (nM) σ2; compound listing tables
smiles,measurement,value
COc1cc2c(cc1OC)CN(CCCCn1ccc3ccccc31)CC2 [CM 360],Ki,0.21 ± 0.02 nM
